{"sequences": {"note": "Amino acid sequences for entries named in this document (tags omitted). A change or cut given only in a name is not applied to a line headed by its entry. Residues count along the entry.", "UniProt O42275, 24-633 limits assumed": "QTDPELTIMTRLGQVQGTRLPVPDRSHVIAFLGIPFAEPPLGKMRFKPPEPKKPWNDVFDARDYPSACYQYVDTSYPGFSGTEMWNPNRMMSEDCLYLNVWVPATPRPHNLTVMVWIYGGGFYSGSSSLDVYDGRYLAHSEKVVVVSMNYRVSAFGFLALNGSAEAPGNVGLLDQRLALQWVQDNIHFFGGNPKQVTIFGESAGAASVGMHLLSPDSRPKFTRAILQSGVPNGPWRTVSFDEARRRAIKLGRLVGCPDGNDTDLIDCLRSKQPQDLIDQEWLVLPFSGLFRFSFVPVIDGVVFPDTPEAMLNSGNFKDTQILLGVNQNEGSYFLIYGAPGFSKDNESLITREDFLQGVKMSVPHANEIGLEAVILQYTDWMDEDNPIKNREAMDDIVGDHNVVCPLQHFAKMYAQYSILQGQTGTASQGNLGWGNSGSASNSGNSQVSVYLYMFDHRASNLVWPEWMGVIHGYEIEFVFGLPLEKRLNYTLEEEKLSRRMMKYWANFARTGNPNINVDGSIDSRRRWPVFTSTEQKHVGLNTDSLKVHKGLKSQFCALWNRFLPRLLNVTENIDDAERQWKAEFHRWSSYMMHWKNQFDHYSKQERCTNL", "UniProt P22303": "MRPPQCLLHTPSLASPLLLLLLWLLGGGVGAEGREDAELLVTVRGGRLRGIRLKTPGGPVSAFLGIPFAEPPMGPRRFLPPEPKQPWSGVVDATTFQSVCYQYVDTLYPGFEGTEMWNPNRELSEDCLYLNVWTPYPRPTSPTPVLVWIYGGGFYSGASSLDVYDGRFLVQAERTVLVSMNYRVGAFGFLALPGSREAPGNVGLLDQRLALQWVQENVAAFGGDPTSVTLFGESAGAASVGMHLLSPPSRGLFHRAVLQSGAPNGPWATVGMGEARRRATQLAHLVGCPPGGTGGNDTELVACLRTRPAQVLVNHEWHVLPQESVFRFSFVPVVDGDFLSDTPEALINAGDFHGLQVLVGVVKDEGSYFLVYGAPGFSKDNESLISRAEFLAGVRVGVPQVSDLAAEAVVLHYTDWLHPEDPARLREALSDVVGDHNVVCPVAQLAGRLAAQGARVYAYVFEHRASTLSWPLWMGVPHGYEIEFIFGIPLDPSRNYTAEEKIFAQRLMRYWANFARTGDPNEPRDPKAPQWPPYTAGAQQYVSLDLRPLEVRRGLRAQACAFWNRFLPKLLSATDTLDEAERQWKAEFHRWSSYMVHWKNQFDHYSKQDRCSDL"}, "source": "patent US8187832B2", "about": "“Method of detecting an amount of a cholinesterase inhibitor in a sample” (dated 2012)", "key": {"[1]": {"target": "acetylcholinesterase (AChE) (Electrophorus electricus, UniProt O42275)", "assay": "KF inhibitory effects on acetylcholinesterase"}, "Blood AChE": {"target": "Blood AChE (Homo sapiens, UniProt P22303)", "assay": "Blood acetylcholinesterase inhibition in spiked human blood (conventional/commercial AChE assay kit)"}, "[2]": {"target": "Immobilised AChE (ImmAChE), acetylcholinesterase from electric eels (Electrophorus electricus, UniProt O42275)"}, "[3]": {"settings": "after oral administration of 30-60 mg, metabolic excretion and conversion not considered; cited from earlier work"}, "[4]": {"settings": "1000 nM Dichlorvos spiked in blood"}, "[5]": {"settings": "1250 nM Dichlorvos spiked in blood"}, "[6]": {"settings": "1500 nM Dichlorvos spiked in blood"}}, "note": "“And” between values parts separate entries of the source, which are not always exact repeats. Equal entries are not always repeated. Where two headings read alike, the source gives them in different places.", "data": [{"compound": "potassium fluoride", "values": [{"measurement": "decrease of enzyme activities (AChE)", "setting": "[1]; 2 mM KF", "value": "more than 70%"}, {"measurement": "AChE inhibition", "setting": "[1]; 20 mM KF", "value": "complete AChE inhibition"}]}, {"compound": "COP(=O)(OC)OC=C(Cl)Cl", "values": [{"measurement": "% Inhibition of Blood AChE", "setting": "Blood AChE; [4]", "value": 26.6, "unit": "%"}, {"measurement": "% Inhibition of Blood AChE", "setting": "Blood AChE; [5]", "value": "> 30% and 33.0%"}, {"measurement": "% Inhibition of Blood AChE", "setting": "Blood AChE; [6]", "value": 35.0, "unit": "%"}, {"measurement": "% Current test Kit Response", "setting": "[2]; [4]", "value": "22% and 22.7%"}, {"measurement": "% Current test Kit Response", "setting": "[2]; [5]", "value": 30.4, "unit": "%"}, {"measurement": "% Current test Kit Response", "setting": "[2]; [6]", "value": 39.8, "unit": "%"}]}, {"compound": "CN(C)C(=O)Oc1ccc[n+](C)c1", "values": [{"measurement": "Pyr concentration in blood", "setting": "[3]", "value": "1 E-07 M"}]}]}
